Columns and labels:
[1] = target: T1, Histone-arginine methyltransferase CARM1 (Homo sapiens, UniProt Q86X55); assay: Inhibition of human PRMT4 using (3H) methylated biotin labelled peptide as substrate in presence of 3H-SAM by scintillation proximity assay
T1 sequence (Q86X55 whole entry): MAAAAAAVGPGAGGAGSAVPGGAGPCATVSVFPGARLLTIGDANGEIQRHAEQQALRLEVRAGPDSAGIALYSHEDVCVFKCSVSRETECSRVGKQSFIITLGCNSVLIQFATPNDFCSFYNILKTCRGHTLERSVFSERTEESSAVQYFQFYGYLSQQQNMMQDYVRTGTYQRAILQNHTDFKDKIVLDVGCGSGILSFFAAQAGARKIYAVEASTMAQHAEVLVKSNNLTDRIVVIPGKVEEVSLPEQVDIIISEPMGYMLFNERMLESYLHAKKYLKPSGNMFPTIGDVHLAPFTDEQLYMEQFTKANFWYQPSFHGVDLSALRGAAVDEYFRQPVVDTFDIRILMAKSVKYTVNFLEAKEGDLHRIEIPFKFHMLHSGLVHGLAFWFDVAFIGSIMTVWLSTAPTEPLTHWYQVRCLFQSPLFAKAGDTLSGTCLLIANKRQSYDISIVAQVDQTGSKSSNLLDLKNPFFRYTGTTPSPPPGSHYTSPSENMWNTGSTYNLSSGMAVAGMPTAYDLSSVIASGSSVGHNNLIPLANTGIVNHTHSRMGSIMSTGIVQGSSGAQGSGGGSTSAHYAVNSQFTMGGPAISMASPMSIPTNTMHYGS

Chains of the proteins cited; added tags and fusions are not shown. Lines headed by an entry give the natural chain unless they say otherwise; changes in a name come on top.
UniProt O60678: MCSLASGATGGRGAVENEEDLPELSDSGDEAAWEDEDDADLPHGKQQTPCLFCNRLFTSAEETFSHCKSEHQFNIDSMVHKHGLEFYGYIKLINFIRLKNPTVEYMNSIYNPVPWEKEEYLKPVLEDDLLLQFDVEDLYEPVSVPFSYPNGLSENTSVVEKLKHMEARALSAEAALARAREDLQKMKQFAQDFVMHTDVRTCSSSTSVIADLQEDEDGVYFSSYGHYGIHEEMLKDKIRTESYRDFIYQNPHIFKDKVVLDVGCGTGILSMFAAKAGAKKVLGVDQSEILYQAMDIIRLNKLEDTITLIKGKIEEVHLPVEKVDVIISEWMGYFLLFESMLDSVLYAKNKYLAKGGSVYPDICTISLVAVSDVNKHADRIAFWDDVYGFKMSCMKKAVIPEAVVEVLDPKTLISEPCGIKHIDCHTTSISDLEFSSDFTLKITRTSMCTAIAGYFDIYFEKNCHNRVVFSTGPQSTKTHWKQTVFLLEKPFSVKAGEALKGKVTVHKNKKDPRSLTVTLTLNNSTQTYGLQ
UniProt Q99873, whole entry: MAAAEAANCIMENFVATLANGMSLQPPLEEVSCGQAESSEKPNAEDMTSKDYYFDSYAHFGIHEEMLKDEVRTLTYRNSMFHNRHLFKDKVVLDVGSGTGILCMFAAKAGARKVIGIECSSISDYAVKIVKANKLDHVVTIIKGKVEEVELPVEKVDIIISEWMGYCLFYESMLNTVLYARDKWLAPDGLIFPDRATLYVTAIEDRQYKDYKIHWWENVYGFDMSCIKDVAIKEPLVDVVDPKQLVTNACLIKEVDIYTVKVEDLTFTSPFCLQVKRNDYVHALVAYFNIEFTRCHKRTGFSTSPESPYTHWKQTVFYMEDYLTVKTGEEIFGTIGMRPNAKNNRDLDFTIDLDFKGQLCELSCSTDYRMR

[2] = target: T2, Protein arginine N-methyltransferase 3 (Homo sapiens, UniProt O60678); assay: Inhibition of human PRMT3 using (3H) methylated biotin labelled peptide as substrate in presence of 3H-SAM by scintillation proximity assay
[3] = target: T2, Protein arginine N-methyltransferase 3
[4] = target: T3, Protein arginine N-methyltransferase 1 (Homo sapiens, UniProt Q99873); assay: Inhibition of human PRMT1 using (3H) methylated biotin labelled peptide as substrate in presence of 3H-SAM by scintillation proximity assay
[5] = target: T3, Protein arginine N-methyltransferase 1; assay: Binding affinity to human PRMT1 assessed as inhibition constant using (3H) methylated biotin labelled peptide as substrate in presence of 3H-SAM by scintillation proximity assay
[6] = target: T1, Histone-arginine methyltransferase CARM1

- IC50 [1]: 0.26 µM
- IC50 [2]: 1.1 µM
- Ki [3]: 0.55 µM
- IC50 [4]: 0.25 µM
- Ki [5]: 0.12 µM
- Ki [6]: 0.12 µM
SMILES: CN(CCN)Cc1c[nH]cc1-c1cccc(C(F)(F)F)c1
